Measured values taken from ChEMBL document CHEMBL2375349, “Discovery of subtype selective muscarinic receptor antagonists as alternatives to atropine using in silico pharmacophore modeling and virtual screening methods” (2013).

Chains of the proteins cited; added tags and fusions are not shown. Lines headed by an entry give the natural chain unless they say otherwise; changes in a name come on top.
UniProt P20309, whole entry, looked up: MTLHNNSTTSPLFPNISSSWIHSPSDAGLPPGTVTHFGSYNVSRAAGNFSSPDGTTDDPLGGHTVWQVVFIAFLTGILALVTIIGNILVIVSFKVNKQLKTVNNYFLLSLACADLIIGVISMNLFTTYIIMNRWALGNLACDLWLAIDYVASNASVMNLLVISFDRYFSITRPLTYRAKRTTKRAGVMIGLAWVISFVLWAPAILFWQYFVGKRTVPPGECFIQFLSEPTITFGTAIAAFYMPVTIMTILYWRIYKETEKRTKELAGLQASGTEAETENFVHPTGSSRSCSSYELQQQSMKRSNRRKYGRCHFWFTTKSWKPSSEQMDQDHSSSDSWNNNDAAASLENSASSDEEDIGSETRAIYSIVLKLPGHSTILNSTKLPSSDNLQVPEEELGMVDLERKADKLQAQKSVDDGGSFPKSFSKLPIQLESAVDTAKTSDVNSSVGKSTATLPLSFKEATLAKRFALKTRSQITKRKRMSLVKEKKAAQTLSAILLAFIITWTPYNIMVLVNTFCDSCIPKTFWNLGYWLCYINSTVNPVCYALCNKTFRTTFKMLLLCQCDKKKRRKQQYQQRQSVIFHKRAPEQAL
UniProt P11229: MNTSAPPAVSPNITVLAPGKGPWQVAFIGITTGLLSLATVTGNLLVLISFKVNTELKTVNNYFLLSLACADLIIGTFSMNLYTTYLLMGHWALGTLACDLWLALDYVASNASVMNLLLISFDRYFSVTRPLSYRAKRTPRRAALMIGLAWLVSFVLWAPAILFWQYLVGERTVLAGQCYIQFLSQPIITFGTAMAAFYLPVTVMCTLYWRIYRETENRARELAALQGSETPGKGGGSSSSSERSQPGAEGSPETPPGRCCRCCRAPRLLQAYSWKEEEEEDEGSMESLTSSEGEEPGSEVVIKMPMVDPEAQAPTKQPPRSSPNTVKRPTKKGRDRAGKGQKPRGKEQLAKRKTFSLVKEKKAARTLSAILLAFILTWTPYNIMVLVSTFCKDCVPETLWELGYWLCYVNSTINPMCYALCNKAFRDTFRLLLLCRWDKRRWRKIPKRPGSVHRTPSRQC
UniProt P08172, whole entry, looked up: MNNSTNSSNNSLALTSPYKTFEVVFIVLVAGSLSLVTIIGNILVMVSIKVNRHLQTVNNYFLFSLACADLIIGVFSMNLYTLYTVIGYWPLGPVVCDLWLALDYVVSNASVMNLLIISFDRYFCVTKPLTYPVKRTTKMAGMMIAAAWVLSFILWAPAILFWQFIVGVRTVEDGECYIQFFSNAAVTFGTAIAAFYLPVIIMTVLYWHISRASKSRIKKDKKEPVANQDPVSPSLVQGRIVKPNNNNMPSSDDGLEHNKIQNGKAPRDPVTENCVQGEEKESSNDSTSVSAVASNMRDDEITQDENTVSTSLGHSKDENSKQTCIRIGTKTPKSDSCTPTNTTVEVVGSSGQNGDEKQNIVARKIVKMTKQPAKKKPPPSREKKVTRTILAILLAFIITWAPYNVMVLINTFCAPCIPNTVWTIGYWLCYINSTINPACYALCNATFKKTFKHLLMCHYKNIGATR

Columns and labels:
[1] = biological target: T1, Muscarinic acetylcholine receptor M1 and M3 (Homo sapiens) (UniProt P20309+P11229); assay: Selectivity ratio of Ki for human muscarinic M3 receptor to Ki for human muscarinic M1 receptor
[2] = biological target: Muscarinic acetylcholine receptors; M1 & M2 (Homo sapiens) (UniProt P11229+P08172); assay: Selectivity ratio of Ki for human muscarinic M2 receptor to Ki for human muscarinic M1 receptor
Homo sapiens = species on record: Homo sapiens; assay: Selectivity ratio of Ki for human muscarinic M4 receptor to Ki for human muscarinic M1 receptor
[3] = biological target: T1, Muscarinic acetylcholine receptor M1 and M3 (Homo sapiens); assay: Selectivity ratio of Ki for human muscarinic M1 receptor to Ki for human muscarinic M3 receptor

SMILES	Ratio Ki [1]	Ratio Ki [2]	Ratio Ki (Homo sapiens)	Ratio Ki [3]
CC[N+](C)(CC)CCOC(=O)C(c1ccccc1)c1ccccc1	16.8	31.2	98.2	0.0214
OC(CCN1CCCCC1)(c1ccccc1)C1CC2C=CC1C2 (stereo unspecified)	2.5			0.397
CC[N+](CC)(CC)CCOC(=O)C(c1ccccc1)c1ccccc1	0.1	128		10.6
CCN(CC)CCOC(=O)C(CC)(c1ccccc1)c1ccccc1	1.46	1.46	1.78	0.683
CC[N+](C)(CC)CCOC(=O)C(O)(c1ccccc1)c1ccccc1	2.7			0.375
CCN(CC)CCOC(=O)C(c1ccccc1)N1CCCCC1 (stereo unspecified)	0.69	3.78		1.46
C[N+](C)(C)CCOC(=O)C(c1ccccc1)c1ccccc1	4.4		292	0.223
CCN(CC)CCOC(=O)C(C)(c1ccccc1)c1ccc(O)cc1 (stereo unspecified)	59.2	5.33	642	0.0169
CCN(CC)CCOC(=O)C(C)(c1ccccc1)c1ccccc1	513	7.07	41.6	0.00195
CCN(CC)CCOC(=O)C(c1ccccc1)C1(O)CCCCC1 (stereo unspecified)	1.08			0.926
CCN(CC)CCOC(=O)c1ccccc1Sc1ccc(Cl)cc1	0.2	2.58		4.76
CC[C@H](C)C(C(=O)OCCCN(CC)CC)c1ccccc1 (stereo partly specified)	0.56			1.79
